Where “and” joins values, the source holds several entries; their conditions need not be identical. Identical values can stand only once.
Key:
[1] = tested on: WSU-DLCL2 cells; assay: Cell growth inhibition by Trypan Blue cell counting and MTT assay; format: cell-based, human; details: read-out: IC50, 50% growth inhibition concentration; WSU-DLCL2, 72 h; estimated from cell counting and MTT
[2] = molecular target: recombinant human Bcl-2 (Homo sapiens, UniProt P10415); assay: Fluorescence polarization-based competitive binding assay
[3] = molecular target: heterodimers between Bcl-XL and Bim (Homo sapiens, UniProt Q07817); assay: Co-immunoprecipitation of pro- and anti-apoptotic complexes in WSU-DLCL2 cells; format: cell-based; details: WSU-DLCL2, co-immunoprecipitation with anti-Bcl-XL antibody
[4] = molecular target: recombinant human Bcl-XL (Homo sapiens, UniProt Q07817); details: n = 3

Sequences of proteins named here, by UniProt entry; tags and fusion partners are left off.
UniProt P10415, whole entry: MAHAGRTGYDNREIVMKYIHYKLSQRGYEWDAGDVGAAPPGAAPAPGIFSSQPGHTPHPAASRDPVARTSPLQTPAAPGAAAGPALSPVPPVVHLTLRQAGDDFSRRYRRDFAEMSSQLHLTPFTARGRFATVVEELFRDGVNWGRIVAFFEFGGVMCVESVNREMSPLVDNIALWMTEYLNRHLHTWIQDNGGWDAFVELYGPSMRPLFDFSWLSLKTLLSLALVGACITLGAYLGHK
UniProt Q07817, whole entry: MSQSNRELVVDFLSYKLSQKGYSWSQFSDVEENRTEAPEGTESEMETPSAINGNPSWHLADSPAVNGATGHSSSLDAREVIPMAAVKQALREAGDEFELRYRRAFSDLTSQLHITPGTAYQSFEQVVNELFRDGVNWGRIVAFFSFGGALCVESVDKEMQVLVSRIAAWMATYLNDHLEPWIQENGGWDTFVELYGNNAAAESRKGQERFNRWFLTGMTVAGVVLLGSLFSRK

Apogossypolone [ApoG2]
IC50 [1]: ~350 nM and 350 nM | IC50 relative to Ki for Bcl-2 ([2]; IC50 higher than Ki): 10 fold | Ki ([2]; recombinant Bcl-2, n = 3): 35 ± 14 nM | Formation of heterodimers between Bcl-XL and Bim [3]: blocked the formation of heterodimers between Bcl-XL and Bim in a concentration-dependent manner | Ki [4]: 660 ± 62 nM

Reference: PMC4106024 (Cancer biology & therapy, 2008)
